Measured values published in PubChem BioAssay AID886 (National Center for Advancing Translational Sciences (NCATS), 2007).
This is a selection; strong and weak results do not stand in their true shares. Records with an inconclusive call do not appear. Calls of active or inactive are those of the source. The call rests on the fitted dose curve; in most records, active means well fitted inhibition curve with a large enough effect; inconclusive means small, poorly fitted or top-dose-only effect; inactive means no such curve, though single readings can be large or run the other way.

Chains of the proteins cited; added tags and fusions are not shown.
UniProt Q99714, whole entry: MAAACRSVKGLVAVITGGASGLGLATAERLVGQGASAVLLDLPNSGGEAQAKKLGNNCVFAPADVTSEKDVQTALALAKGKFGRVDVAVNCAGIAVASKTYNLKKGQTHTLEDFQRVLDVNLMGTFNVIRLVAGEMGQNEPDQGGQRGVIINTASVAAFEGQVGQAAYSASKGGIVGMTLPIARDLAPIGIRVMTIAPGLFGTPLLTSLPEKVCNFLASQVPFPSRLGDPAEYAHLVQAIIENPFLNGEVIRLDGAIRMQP

biological target: 3-hydroxyacyl-CoA dehydrogenase type-2 (Homo sapiens) (UniProt Q99714); experiment: qHTS Assay for Inhibitors of HADH2 (Hydroxyacyl-Coenzyme A Dehydrogenase, Type II); details: recombinant HADH2, NADH fluorescence, beta-hydroxybutyryl-CoA; at 57.1 µM (top of the series); further: nearly all actives have a fitted effect of over 60% in size
On the % scale 0 is the no-effect control and ±100 the full control effect.

Structure (SMILES)	activity change, negative = inhibition
O=[N+]([O-])C(Cl)(Cl)Cl	inactive: 0.454%
CN(CCCl)CCCl	inactive: -7.96%
